# From ChEMBL document CHEMBL6109094, “Anti-inflammatory agents design via the fragment hybrid strategy in the discovery of compound c1 for treating ALI and UC” (Eur J Med Chem, 2025)
# Experiments:
# Type in all cases: functional, cell-based
# [1] = test system: RAW264.7; test: Anti-inflammatory activity in mouse RAW264.7 cells assessed as inhibition of LPS-induced IL-6 level preincubated for 30 mins followed by LPS addition measured after 24 hrs by ELISA; conditions: time 24.5 hrs
# [2] = test system: RAW264.7; test: Anti-inflammatory activity in mouse RAW264.7 cells assessed as inhibition of LPS-induced TNF-alpha level preincubated for 30 mins followed by LPS addition measured after 24 hrs by ELISA; conditions: dose 0.25-2 µM, time 24.5 hrs
# [3] = test system: J774.A1; test: Anti-inflammatory activity in mouse J774.A1 cells assessed as inhibition of LPS-induced IL-6 level preincubated for 30 mins followed by LPS addition measured after 24 hrs by ELISA; conditions: dose 0.625-5 µM, time 24.5 hrs
# [4] = test system: THP-1; test: Anti-inflammatory activity in human THP-1 cells assessed as inhibition of LPS-induced TNF-alpha level preincubated for 30 mins followed by LPS addition measured after 24 hrs by ELISA; conditions: dose 1.25-10 µM, time 24.5 hrs
# [5] = test system: THP-1; test: Anti-inflammatory activity in human THP-1 cells assessed as inhibition of LPS-induced IL-6 level preincubated for 30 mins followed by LPS addition measured after 24 hrs by ELISA; conditions: dose 0.625-5 µM, time 24.5 hrs
# [6] = test system: J774.A1; test: Anti-inflammatory activity in mouse J774.A1 cells assessed as inhibition of LPS-induced TNF-alpha level preincubated for 30 mins followed by LPS addition measured after 24 hrs by ELISA; conditions: dose 0.625-5 µM, time 24.5 hrs
Structure (SMILES),inhibition [1],further results
COc1cc2c(O[C@H]3CC[C@@H](N)CC3)ncnc2cc1OCc1cccc(C)c1,Dose-dependent-effect,
COc1cc2c(O[C@H]3CC[C@@H](N)CC3)ncnc2cc1OCc1cccc(Br)c1,Dose-dependent-effect,inhibition [2]: Dose-dependent-effect; inhibition [3]: Dose-dependent-effect; inhibition [4]: Dose-dependent-effect; inhibition [5]: Dose-dependent-effect; inhibition [6]: Dose-dependent-effect
COc1cc2c(O[C@H]3CC[C@@H](N)CC3)ncnc2cc1OCc1ccc([N+](=O)[O-])cc1,Dose-dependent-effect,
COc1cc2c(O[C@H]3CC[C@@H](N)CC3)ncnc2cc1OCc1ccc(C)cc1,Dose-dependent-effect,
COc1cc2c(O[C@H]3CC[C@@H](NCCN4CCNCC4)CC3)ncnc2cc1OCc1ccccc1,Dose-dependent-effect,
